# Screens from PubChem.
# MBNL1 CUG block – MBNL1-poly(CUG) RNA binding inhibition. Q9NR56. TR-FRET MBNL1-His/biotin-(CUG)12 binding, 665/545 ratio. Potency, µM (doses to about 57.5 µM), inactives show top-dose activity change, negative = inhibition, hits mostly inhibitors. 0.036% of 280,000 active; active = well fitted inhibition curve with a large enough effect in the signal ratio, with a control signal flat, not every such curve was filed as active; inconclusive = small, poorly fitted or top-dose-only effect, or effect the other way, or a change in a side signal; inactive = no such curve, though single readings can be large or run the other way; the % refers to the signal ratio; also: potency is read from the fitted curve at half-maximal effect; % is scaled to controls: 0 for no effect and ±100 for the full control effect
#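 TR-FRET between His-tagged MBNL1 and biotin-(CUG)12 RNA, detected with Tb anti-His antibody (0.055 ng/ul) and streptavidin-XL665 (5 nM), 60 min at room temperature. Compounds titrated 92 nM to 58 uM; 665/545 nm ratio normalized to buffer and complex controls.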
# ClpP mod – qHTS Assay for Activators of ClpP; ATP-dependent Clp protease proteolytic subunit (Bacillus subtilis (strain 168)), P80244; purified B. subtilis ClpP, FRET peptide cleavage, 20 min; Potency, µM (series often up to 57.5 µM), for inactives: top-dose activity change, negative = active; 1.9% of 340,000 active; active = well fitted falling curve with a large enough effect; inconclusive = small, poorly fitted or top-dose-only effect; inactive = no such curve, though single readings can be large or run the other way; also: potency is read from the fitted curve at half-maximal effect; the source files actives as falling curves though it sought activators and does not explain the sign; nearly all actives have a fitted effect of over 65% in size
#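 FRET quenching reversal measured ClpP activation: 10 microg/mL B. subtilis ClpP at pH 8 with the FRET-FV decapeptide, read at 430 nm after 320 nm excitation. The 20-min minus 0-min signal was scaled between DMSO/no-enzyme wells and ADEP (5.8 microM final).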
# CBFb-RUNX1 inh – CBF-beta/RUNX1 interaction disruption | Q01196+Q13951 | AlphaScreen CBFb-His/RUNX1-biotin binding, biochemical | Potency, µM (series often up to 59.8 µM), without a hit: at the highest dose activity, negative = inhibition, most hits filed as inhibitors | 230,000 tested, under 10 active | AID 1477; active = well fitted curve in the direction sought with a large enough effect; inconclusive = small, poorly fitted or top-dose-only effect, or effect the other way, or another doubt; inactive = no such curve, though single readings can be large or run the other way; also: % of control where 0% means no effect
#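 AlphaScreen binding: CBFb-His and RUNX1-biotin (30 nM each) preincubated 20 min, compound added for 15 min, then nickel and streptavidin beads for 90 min, all at room temperature. Disruption of the interaction by any mechanism counts as activity.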
# Rango dissoc inh – prevents RanGTP from dissociating the Rango-importin beta complex; 0.071% of 340,000 active; O95149+P62826; Potency, µM (doses to about 46.1 µM), inactives show top-dose activity change, negative = inhibition; Biochemical FRET Rango-importin beta, RanGTP-induced dissociation; also: potency is read from the fitted curve at half-maximal effect; % of control where 0% means no effect; nearly all actives have a fitted effect of over 45% in size
#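 Quantitative HTS using a FRET biosensor: 0.1 uM Rango, 0.25 uM importin beta, 0.6 uM Ran, 2 mM GTP, 0.2 uM RCC1 final, PBS with DTT, Tween-20 and BSA. Post-read taken 45 min after Ran addition.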
# Rango complex inh – inhibitors of Rango-importin beta complex formation; Q14974; Rango CFP/YFP FRET sensor + importin beta, 45 min; Potency, µM (top dose mostly 92.2 µM), without a hit: top-dose inhibition of complex formation; 0.031% of 340,000 active; AID 540263;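 also: potency is read from the fitted curve at half-maximal effect; 0% = DMSO wells and 100% = buffer wells lacking importin beta; nearly all actives have a fitted effect of over 15% in size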
#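 FRET biosensor (snurportin 1 IBB flanked by EYFP and cerulean), 50 nM, with compound 5 min, then 0.125 microM importin beta in PBS, 1 mM DTT, 0.02% Tween-20, 0.1% BSA. CFP/YFP ratio read after 45 min at room temperature; pre-read flags interference.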
# Active calls of the source: *; ? = inconclusive; . = not tested or not shown; [ ] = another dose, or the depositor's remark. This is one part of a sample in which hits are shown more often than they occur. Unless noted, calls follow the shape of the full dose curve.
1: COc1ccc(C(NC(=O)C(C)C)c2c(O)ccc3ccccc23)cc1OC (stereo unspecified)
2: CC(C)C(=O)NC(c1ccccc1Cl)c1c(O)ccc2ccccc12 (stereo unspecified)
3: COc1cccc(-n2c(SCc3ccc(F)cc3)nc3c([nH]c4ccccc43)c2=O)c1
4: C=C(c1nc2ccccc2s1)C1Cc2cccc3c2N(CCC3)C1 (stereo unspecified)
5: CN(CC(=O)NCc1ccc(Cl)cc1)S(=O)(=O)c1ccc2c(c1)c(=O)n(C)c(=O)n2C
6: CCN1CCN(S(=O)(=O)c2ccc(Oc3ccccc3OC)cc2)CC1
7: O=c1[nH]ncc(N2CCCC2)c1Cl
8: O=c1[nH]ncc(N2CCN(C(c3ccccc3)c3ccccc3)CC2)c1Cl

The chains behind the UniProt entries cited, without tags or fusion partners.
ATP-dependent Clp protease proteolytic subunit (Bacillus subtilis (strain 168)), P80244, UniProt P80244, whole entry, looked up: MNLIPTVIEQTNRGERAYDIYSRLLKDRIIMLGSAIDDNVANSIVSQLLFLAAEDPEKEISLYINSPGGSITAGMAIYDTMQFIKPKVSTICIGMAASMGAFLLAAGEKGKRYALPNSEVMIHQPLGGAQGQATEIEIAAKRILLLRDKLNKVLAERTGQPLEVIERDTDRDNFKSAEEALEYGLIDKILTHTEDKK

Screen / compound no.,1,2,3,4,5,6,7,8
Rango complex inh,1%,-2%,.,.,.,-5%,0%,1%
MBNL1 CUG block,.,2%,.,.,.,-4%,6%,.
Rango dissoc inh,-1%,-5%,.,.,.,-12%,14%,0%
CBFb-RUNX1 inh,-7%,2%,.,.,.,6%,5%,-15%
ClpP mod,28µM*,25µM*,-17%,0%,-2%,20µM*,.,28µM*

# 4 of the compounds above, field by field.
5: CN(CC(=O)NCc1ccc(Cl)cc1)S(=O)(=O)c1ccc2c(c1)c(=O)n(C)c(=O)n2C
  Rango complex inh: .; MBNL1 CUG block: .; Rango dissoc inh: .; CBFb-RUNX1 inh: .; ClpP mod: -2%

1: COc1ccc(C(NC(=O)C(C)C)c2c(O)ccc3ccccc23)cc1OC (stereo unspecified)
  Rango complex inh: 1%; MBNL1 CUG block: .; Rango dissoc inh: -1%; CBFb-RUNX1 inh: -7%; ClpP mod: 28µM*

2: CC(C)C(=O)NC(c1ccccc1Cl)c1c(O)ccc2ccccc12 (stereo unspecified)
  Rango complex inh: -2%; MBNL1 CUG block: 2%; Rango dissoc inh: -5%; CBFb-RUNX1 inh: 2%; ClpP mod: 25µM*

4: C=C(c1nc2ccccc2s1)C1Cc2cccc3c2N(CCC3)C1 (stereo unspecified)
  Rango complex inh: .; MBNL1 CUG block: .; Rango dissoc inh: .; CBFb-RUNX1 inh: .; ClpP mod: 0%

# Other compounds follow.
9: Cn1c(CNC(=O)CSc2nc(-c3ccccc3F)nc3cc(=O)[nH]n23)nc2ccccc21
10: Cn1c(=O)c(-c2ccccc2)nc2ccccc21
11: CC(C)N1CC=C2C(C#N)=C(N)C(C#N)(C#N)C(c3ccccc3)C2C1 (stereo unspecified)
12: CCN1CC=C2C(C#N)=C(N)C(C#N)(C#N)C(c3cc(Cl)ccc3Cl)C2C1 (stereo unspecified)
13: CCN(CC)CCNC(=O)c1c2c(nc3ccccc13)C(=O)N(C1CCCCC1)C2
14: N#C/C(=C\c1ccc(OC(=O)c2cccs2)cc1)c1nc2ccccc2[nH]1
15: N#C/C(=C\c1cccs1)c1nc2ccccc2[nH]1
16: COc1ccc(C2=N[C@@H](C(C)C)CO2)cc1

Screen / compound no.,9,10,11,12,13,14,15,16
Rango complex inh,.,0%,?,?,.,?,?,.
MBNL1 CUG block,.,?,?,?,.,0%,15%,.
Rango dissoc inh,.,-6%,?,?,.,?,-15%,.
CBFb-RUNX1 inh,.,12%,-5%,-10%,.,3%,3%,11%[136 µM]
ClpP mod,-1%,25µM*,?,22µM*,28µM*,28µM*,-2%,.

17: Cc1cc(F)ccc1NC(=O)c1c(C)oc2c1C1=NCCN1C=N2
18: COc1ccc(S(=O)(=O)N2CCC(n3c(C(F)(F)F)nc4cccnc43)CC2)cc1OC
19: O=C(O)CCNc1cc(N2CCN(C(=O)c3ccco3)CC2)c2noc3c2c1C(=O)c1ccccc1-3
20: CCN1CCN(c2cc(N3CCN(C(=O)c4ccco4)CC3)c3c4c(onc24)-c2ccccc2C3=O)CC1
21: COc1cc2[nH]c3c(=O)n(CCN(C(C)C)C(C)C)cnc3c2cc1OC
22: COC(=O)C1=C(C)NC(C)=C(C(=O)OC)C1C(=O)OCC(=O)c1ccc(Br)cc1
23: COC(=O)C1=C(C)NC(C)=C(C(=O)OC)C1C(=O)OCC(=O)c1ccc(F)cc1
24: COc1cccc(N2CCN(C(=O)c3cc4c(s3)-c3c(C)cccc3OC4)CC2)c1

Screen / compound no.,17,18,19,20,21,22,23,24
Rango complex inh,.,.,?,33µM*,-5%,-4%,1%,.
MBNL1 CUG block,.,.,?,?,-7%,.,1%,.
Rango dissoc inh,.,.,-7%,?,10%,-7%,-20%,.
CBFb-RUNX1 inh,.,.,.,.,-2%,.,8%,.
ClpP mod,-2%,-4%,.,.,28µM*,-4%,32µM*,4%

25: COc1ccc(OC)c(C2CC(=O)Nc3c2c(=O)[nH]c2nc4ccccc4n32)c1 (stereo unspecified)
26: O=C(COc1ccccc1)NC1CCS(=O)(=O)C1 (stereo unspecified)
27: O=C(COC(=O)C1(c2ccccc2F)CCCC1)NC1CCS(=O)(=O)C1 (stereo unspecified)
28: NS(=O)(=O)c1ccc(NC(=O)COC(=O)C2(c3ccccc3F)CCCC2)cc1
29: COC(=O)NNC(=O)COc1ccc2ccccc2c1Br
30: Nc1c2c(nc3ccccc13)N(c1ccccc1)CC2
31: COc1ccccc1C(=O)n1nc(-c2ccccc2)nc1NCc1ccc(Cl)cc1
32: CN(C)c1ncnc2c1C(c1ccccc1)C(C)(C)O2 (stereo unspecified)

Screen / compound no.,25,26,27,28,29,30,31,32
Rango complex inh,.,0%,5%,2%,-1%,1%,.,?
MBNL1 CUG block,.,-2%,-3%,?,.,?,.,.
Rango dissoc inh,.,-1%,0%,1%,-10%,-9%,.,3%
CBFb-RUNX1 inh,.,1%,4%,-16%,-3%,0%,.,.
ClpP mod,-6%,-3%,28µM*,25µM*,25µM*,16µM*,-8%,32µM*

33: CN(C)c1ncnc2sc(-c3ccccc3)cc12
34: COc1cc(/C=C/C(=O)OCC(=O)N2CCCc3ccccc32)ccc1O
35: CC(C)(C)c1ccc(/C=C/C(=O)N2CCOCC2)cc1
36: CC(C)Cc1ccc(/C=C/C(=O)N2CCOCC2)cc1
37: Cc1c(Cl)cccc1NC(CC(=O)c1ccccc1)C(=O)O (stereo unspecified)
38: O=C(CC(Nc1ccccc1Cl)C(=O)O)c1ccccc1 (stereo unspecified)
39: NNC(=O)Cn1c(-c2ccccc2)cc2ccccc21
40: CC(=O)Nn1c(-c2ccccc2)cc2ccccc21

Screen / compound no.,33,34,35,36,37,38,39,40
Rango complex inh,-4%,?,-4%,?,-3%,-3%,2%,-1%
MBNL1 CUG block,?,.,19%,.,.,-8%,-9%,10%
Rango dissoc inh,16%,15µM*,-14%,-8%,2%,4%,13%,27%
CBFb-RUNX1 inh,.,.,-13%,-3%,3%,-1%,.,0%
ClpP mod,3%,-1%,22µM*,-1%,25µM*,-1%,0%,14µM*

41: CCc1cc2c(NCCC(=O)O)nc(C)nc2s1
42: CC(=O)Nc1nonc1-c1nc2ccccc2n1CCC(C)C
43: CCC(=O)Nc1nonc1-c1nc2ccccc2n1CCC(C)C
44: CCC(=O)Nc1nonc1-c1nc2ccccc2n1N(C(=O)CC)C(=O)CC
45: COc1cccc2sc(N3CCN(C(=O)CS(=O)(=O)c4ccc(Cl)cc4)CC3)nc12
46: COc1cc2nc(N(C)C)nc(NC3CCN(C)CC3)c2cc1OC
47: CCC(C(=O)NCc1ccco1)N(C(=O)CNS(=O)(=O)c1ccc(C)cc1)c1ccccc1OC (stereo unspecified)
48: CCN(CC)CCCN(Cc1cc2cc(OC)c(OC)cc2[nH]c1=O)C(=O)Nc1ccccc1
49: COc1cc2cc(CN(CCN3CCCC3)C(=O)Nc3ccc(F)cc3)c(=O)[nH]c2cc1OC
50: COc1ccc2[nH]c(=O)c(CN(CCCN(C)C)C(=O)Nc3ccccc3)cc2c1

Screen / compound no.,41,42,43,44,45,46,47,48,49,50
Rango complex inh,0%,-1%,-1%,-1%,.,.,-4%,-1%,8%,3%
MBNL1 CUG block,6%,13%,-8%,-15%,.,.,-1%,-3%,3%,-2%
Rango dissoc inh,-16%,-5%,-9%,-6%,.,.,1%,0%,-6%,-2%
CBFb-RUNX1 inh,11%,15%,6%,1%,.,.,-3%,-5%,-12%,3%
ClpP mod,28µM*,?,28µM*,28µM*,-1%,4%,32µM*,32µM*,14µM*,?
